In the test the test system is phospho-FLT3 in CD34+CD38− AML cells. Kind of test: Phospho-FLT3 flow cytometry, CD34+CD38− population of primary AML. In kind it is cell-based, human. Conditions: 30 minutes after addition of drug. For orientation: In flow cytometry, cells or beads pass a laser one at a time.

SMILES strings stand for the structures. “And” between values parts separate entries of the source, which are not always exact repeats. Identical values can stand only once.

On to `Cn1sc(=O)n(Cc2ccccc2)c1=O` [TDZD-8, 4-benzyl-2-methyl-1,2,4-thiadiazolidine-3,5-dione], for which the “inhibition of FLT3 phosphorylation” value was ~30% and 29.5%.

Values taken from patent publication US9180118B2, “Thiadiazolidinone derivatives” (University of Rochester, priority 2006, dated 2015).
